Reference: patent US4137310A, “Method for the control of cattle grubs employing a phenylene bis[imino(thio]carbonyl)diphosphor(thio)-amidic acid ester” (dated 1979)

Tested on: Cuterebra sp. larvae
Assay: Efficacy for the control of Cuterebra sp. in infested mice, dermal (dip) treatment
Details: dermal dip in emulsion, male mice, 48 hours after infestation, examined 4 days posttreatment; concentration that kills 90% of the larvae, log-probit

Structure (SMILES) | Dermal (mice) Dosage LC90 [%]
CCOP(=O)(NC(=S)Nc1ccc(Cl)cc1NC(=S)NP(=O)(OCC)OCC)OCC | 0.086
CCOP(=O)(NC(=S)Nc1ccccc1NC(=S)NP(=O)(OCC)OCC)OCC | 0.15
CCOP(=O)(NC(=S)Nc1ccc(NC(=S)NP(=O)(OCC)OCC)c(Cl)c1)OCC | 0.43
